Tests used:
kainate receptor = format: cell-based, rat
Description: A directional cDNA library (λZAPII RTB1; complexity: 8×10^5 elements), consisting of 18 independent sublibraries of 44,000 clones each, was constructed from this poly(A)^+ RNA using the bacteriophage expression vector λZAPII. A pool of in vitro transcripts, comprised of transcripts made separately from all 18 amplified sublibraries, was injected into oocytes. […]. No responses to NMDA or quisqualate were detected. […]. Subsequently, pools of 44,000 clones (=the single sublibraries), 4,000, 400 and 40 clones were tested. In each of these tests at least one pool responded to KA.

Protein sequences, listed by entry. Tags and fused reporters are not part of them. Residues count along the entry.
UniProt P19490, 19-907 S67T/A248R/S789T: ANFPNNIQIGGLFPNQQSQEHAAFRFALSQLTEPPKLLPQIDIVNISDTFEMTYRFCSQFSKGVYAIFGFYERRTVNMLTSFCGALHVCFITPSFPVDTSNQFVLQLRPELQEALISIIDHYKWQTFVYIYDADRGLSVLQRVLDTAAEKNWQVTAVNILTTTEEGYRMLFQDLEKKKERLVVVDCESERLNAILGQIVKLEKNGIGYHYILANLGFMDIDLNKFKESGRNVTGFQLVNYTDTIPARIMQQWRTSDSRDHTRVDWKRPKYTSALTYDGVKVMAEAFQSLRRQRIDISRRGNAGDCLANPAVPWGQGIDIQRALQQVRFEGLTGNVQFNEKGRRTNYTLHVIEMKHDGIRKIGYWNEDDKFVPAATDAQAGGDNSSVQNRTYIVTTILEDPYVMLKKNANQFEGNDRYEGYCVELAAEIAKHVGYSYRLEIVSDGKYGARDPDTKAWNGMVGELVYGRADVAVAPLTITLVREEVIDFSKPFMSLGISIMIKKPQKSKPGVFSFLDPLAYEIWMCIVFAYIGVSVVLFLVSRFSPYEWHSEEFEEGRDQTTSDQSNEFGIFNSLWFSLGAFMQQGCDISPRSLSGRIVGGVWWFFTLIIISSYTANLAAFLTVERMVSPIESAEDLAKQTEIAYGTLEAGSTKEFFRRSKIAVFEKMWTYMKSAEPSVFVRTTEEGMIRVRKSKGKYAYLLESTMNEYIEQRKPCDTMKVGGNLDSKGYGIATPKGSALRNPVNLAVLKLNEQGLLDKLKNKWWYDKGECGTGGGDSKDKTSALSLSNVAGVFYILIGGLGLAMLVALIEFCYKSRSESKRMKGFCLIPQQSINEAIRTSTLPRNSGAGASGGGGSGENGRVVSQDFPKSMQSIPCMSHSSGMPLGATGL
UniProt P19492, 23-888: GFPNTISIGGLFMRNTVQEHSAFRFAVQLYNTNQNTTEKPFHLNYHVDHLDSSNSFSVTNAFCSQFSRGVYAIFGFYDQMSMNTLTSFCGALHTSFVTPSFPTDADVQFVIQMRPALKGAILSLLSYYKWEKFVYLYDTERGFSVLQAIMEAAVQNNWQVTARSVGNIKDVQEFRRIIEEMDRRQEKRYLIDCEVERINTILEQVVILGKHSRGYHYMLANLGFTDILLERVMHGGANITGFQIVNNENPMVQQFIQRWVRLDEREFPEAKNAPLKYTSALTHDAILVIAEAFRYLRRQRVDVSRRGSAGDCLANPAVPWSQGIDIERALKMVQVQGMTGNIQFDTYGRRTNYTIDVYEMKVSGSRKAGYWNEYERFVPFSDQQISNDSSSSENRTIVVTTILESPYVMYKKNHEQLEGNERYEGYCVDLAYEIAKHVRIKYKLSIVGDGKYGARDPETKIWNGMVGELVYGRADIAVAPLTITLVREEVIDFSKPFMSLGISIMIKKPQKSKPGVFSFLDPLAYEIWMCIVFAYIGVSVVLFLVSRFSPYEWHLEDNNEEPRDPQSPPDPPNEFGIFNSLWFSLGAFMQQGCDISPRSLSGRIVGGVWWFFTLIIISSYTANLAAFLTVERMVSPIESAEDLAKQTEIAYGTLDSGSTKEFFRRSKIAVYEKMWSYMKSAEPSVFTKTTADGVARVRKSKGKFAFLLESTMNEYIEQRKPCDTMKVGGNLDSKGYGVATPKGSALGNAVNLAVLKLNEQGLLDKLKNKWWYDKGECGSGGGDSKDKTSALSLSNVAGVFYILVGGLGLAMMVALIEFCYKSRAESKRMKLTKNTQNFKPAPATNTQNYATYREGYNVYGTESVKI

GluR2 = conditions: 100 μM KA
GluR1 = GluR1 (Rattus norvegicus, UniProt P19490); experiment: Voltage-clamp recording in Xenopus oocytes injected with GluR1 in vitro RNA; conditions: for response to agonist: GLU 100 μM, NMDA 30 μM plus 10 μM glycine, APB 50 μM, 2 ng RNA, 3 days
GluR3 = GluR3 (Rattus norvegicus, UniProt P19492); experiment: cell-based; format: cell-based; conditions: for response to agonist: GLU 100 μM, NMDA 30 μM plus 10 μM glycine, APB 50 μM, 2 ng RNA, 3 days
[1] = system: GluR1, GluR2, GluR3, GluR4 and GluR5; format: cell-based, rat; conditions: summary statement
[2] = QUIS 10 μM, AMPA 50 μM, normalized to 100 mM KA, -70 mV

Row | SMILES | depolarizations in voltage recordings (kainate receptor; 100 μM kainate, 10 days after injection) | depolarization in response to bath application (GluR2) | Compound Plus Kainate (%): % of the response seen with 30 μM kainate alone (GluR1; test compounds 1 mM plus 30 μM kainate, -70 mV, peak currents, average of 3 oocytes ± SEM) | Compound Alone (%): % of the response evoked by 30 μM kainate immediately before drug application (GluR1; test compounds 1 mM, kainate 30 μM, -70 mV, peak currents, average of 3 oocytes ± SEM) | response to agonist (GluR3; QUIS 10 μM, AMPA 50 μM, -70 mV) | response as % of the KA response (GluR3; [2]) | responses detected (kainate receptor) | activation of homomeric receptor ion-channel complexes [1] | response to agonist (GluR1; QUIS 10 μM, AMPA 50 μM, -70 mV) | response as % of the maximal KA response (GluR1; [2]) | Emax at 50 µM (GluR3; read-out: response as % of the KA response) | response to the AMPA solution used in the GluR6 experiment (hippocampal mRNA) | response to the AMPA solution used in the GluR6 experiment (GluR1) | Emax at 50 µM (GluR1; read-out: response as % of the maximal KA response)
1 | C=C(C)[C@H]1CN[C@H](C(=O)O)[C@H]1CC(=O)O [kainate, kainic acid] | 1-3 mV | depolarize | 100.0% | 100.0% | – | – | – | – | – | – | – | – | – | –
2 | N[C@@H](Cn1oc(=O)[nH]c1=O)C(=O)O [quisqualate, quisqualic acid] | – | – | – | – | also respond | about 10% | No responses | activated by | also respond | 35-40% | – | – | – | –
3 | Cc1onc(O)c1CC(N)C(=O)O (stereo not drawn) [AMPA, α-amino-3-hydroxy-5-methyl-isoxazole-4-propionic acid] | – | – | – | – | also respond | – | – | – | also respond | – | ~10% | did evoke responses | did evoke responses | 35 to 40%

Source: patent publication US5739291A, “Glutamate receptor antibodies” (The Salk Institute For Biological Studies, priority 1995, dated 1998)
